Experimental data reported in patent US4275071A, “Imidazole derivatives” (Recordati S.A., priority 1978, dated 1981).

Assay: in vivo
Settings: mouse
Description: As to MET, it is known that pentylene-tetrazol (metrazol) administered subcutaneously to mice in a loose fold of skin on the back of the neck, produces seizures. […] Failure to observe even a threshold seizure is defined as protection. In the same table the LD50 values (lethal dose 50), evaluated in the mouse both I.p. and per os, are given.

Q: With `O=C1NC(=O)C(c2ccccc2)(c2ccccc2)N1` [Diphenylidantoin, diphenylidantoin, reference compound] as the compound, how does the LD50 (ip) read?
A: 196 mg/kg

Q: What about the LD50 (po) of the same compound?
A: 262 mg/kg
